Experimental data taken from US20080004302A1, “Novel Compounds” (ASTRAZENECA AB, priority 2006, published 2008).

Sequences of proteins named here, by UniProt entry; tags and fusion partners are left off.
UniProt P11712, whole entry: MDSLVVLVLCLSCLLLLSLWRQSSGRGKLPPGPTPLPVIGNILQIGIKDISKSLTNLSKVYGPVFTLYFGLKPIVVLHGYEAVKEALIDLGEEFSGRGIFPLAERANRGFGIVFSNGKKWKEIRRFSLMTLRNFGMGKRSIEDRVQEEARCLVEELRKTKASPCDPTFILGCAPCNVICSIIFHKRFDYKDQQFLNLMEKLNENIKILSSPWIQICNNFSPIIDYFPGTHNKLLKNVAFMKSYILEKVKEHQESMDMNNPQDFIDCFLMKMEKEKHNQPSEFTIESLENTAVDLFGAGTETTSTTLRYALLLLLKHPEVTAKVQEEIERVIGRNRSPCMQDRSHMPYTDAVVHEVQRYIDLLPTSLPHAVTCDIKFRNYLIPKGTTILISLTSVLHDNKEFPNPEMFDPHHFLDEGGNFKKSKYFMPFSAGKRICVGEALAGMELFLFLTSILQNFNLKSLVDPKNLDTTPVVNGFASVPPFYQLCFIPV

Molecular target: human cytochrome P450 (CYP) 2C9 (Homo sapiens, UniProt P11712)
Assay: Cytochrome P450 inhibition assay, 2C9
Conditions: read-out: IC50 range; known inhibitor, positive control; expected IC50 range

Sulphaphenazole was tested, and the IC50 was 100 to 1000 nM.
